The source of these data is patent US20220183282A1, “Fatty Acid Derivatives For Improving The Effect Of Agrochemical Actives” (priority 2019, published 2022).

For the data set, the system named is Poinsettia (e.g. variety Merlot). Nature of the data set: Plant compatibility (phytotoxicity) on indicator plant. In kind it is in vivo. The following applies: 1 g/L, within one day. The source says:
The plant compatibility of fatty acid derivatives according to formula (I) was checked using Poinsettia (e.g. variety Merlot) as indicator plant. If no necroses or other phytotoxicity symptoms, such as leaf curl-up or deformations were observed the substance is considered plant compatible and not phytotoxic.

Turning to ethoxylated lauryl alcohol, the “phytotoxicity symptoms (necroses, leaf curl-up, deformations)” value is “strong distinct necroses”.
